Experimental data published in patent US20100068703A1.

Target: calcium-independent phospholipase A2β with (His)6 tag, purified recombinant from Sf9 cells
Experiment: cell-based or functional assay

activity of CaM-inhibited iPLA2β with 1 mol % oleoyl-CoA added, BODIPY-PC fluorescence assay (FIG. 11B) (% of initial activity): 40
decrease of lysolipid products of iPLA2β (LysoBODIPY-PC, 16:0-LysoPC, 18:1-LysoPC), measured by ESI-MS (FIG. 11E-G): 80%
inhibition of iPLA2β activity with 1-palmitoyl-2-[1-14C]-oleoyl-sn-glycero-3-phosphocholine as substrate (FIG. 11I): 70%
inhibition of iPLA2β-catalyzed hydrolysis of BODIPY-PC, real-time fluorescence assay (FIG. 11A): 70 to 80%
inhibition of palmitoyl-CoA thioesterase activity of iPLA2β (FIG. 9): 10%
inhibition of phospholipase A2 activity of iPLA2β ([1-14C]-POPC in POPC vesicles, FIG. 9): 70 to 80%
activity of CaM-inhibited iPLA2β with oleoyl-CoA (10 µM), [14C]-POPC substrate (FIG. 11I) (scale: % of the activity observed with oleoyl-CoA alone): 75
Substance: High purity bovine calmodulin (Calbiochem), calcium-activated (from UniProt P62157 2-149)
